This is an account of results in PubChem BioAssay AID720658 (The Scripps Research Institute Molecular Screening Center, 2013).

Chains of the proteins cited; added tags and fusions are not shown. Lines headed by an entry give the natural chain unless they say otherwise; changes in a name come on top.
UniProt Q8VD66: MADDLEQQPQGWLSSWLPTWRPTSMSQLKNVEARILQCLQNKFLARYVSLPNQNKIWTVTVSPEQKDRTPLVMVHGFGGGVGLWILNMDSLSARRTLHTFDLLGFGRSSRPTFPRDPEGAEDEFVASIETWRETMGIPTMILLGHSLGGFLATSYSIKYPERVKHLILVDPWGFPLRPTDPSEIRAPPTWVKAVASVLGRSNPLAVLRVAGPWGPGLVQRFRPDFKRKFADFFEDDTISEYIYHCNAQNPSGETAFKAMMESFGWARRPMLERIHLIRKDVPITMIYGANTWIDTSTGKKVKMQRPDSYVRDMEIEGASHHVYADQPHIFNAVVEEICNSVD

The entries are a selection whose mix differs from that of the whole data set. Activity calls are given as the source filed them.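 The calls were made as follows: active = mean inhibition across replicates above the hit cutoff set in the primary screen (cut at about 30% in these data); inactive = the rest.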

The assay addresses (Lyso)-N-acylphosphatidylethanolamine lipase (Mus musculus) (UniProt Q8VD66). As to the kind of experiment: mouse ABHD4 hydrolase blockers, triplicate – biochemical, fluorescence polarization, confirmation (AID 720658).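 Also: 0% = wild-type ABHD4 with DMSO and 100% = catalytically dead S159A mutant with DMSO.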 As to conditions: purified mABHD4, FP-Rh probe fluorescence polarization; at 8.92 µM; stronger effect = higher value. In outline:
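Test system – wild-type mouse ABHD4 · Doses – single nominal compound dose 8.92 µM, 0.89% DMSO final · Also added – FP-Rh activity-based probe · Technique – fluorescence polarization, excitation 525 nm, emission 598 nm · Incubation – 45 min compound pretreatment plus 60 min FP-Rh labeling, 25 °C · Medium – HEPES-saline buffer with 0.01% Pluronic F-127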
On to `Nc1cccc2c([As](=O)(O)O)cccc12`, for which the inhibition was inactive: 27.4%.

For `O=[N+]([O-])c1cc([N+](=O)[O-])c(CCNc2ccccc2)c([N+](=O)[O-])c1`, the inhibition was inactive: 22.3%.
